Laboratory results: US20100233231A1, “USE OF CRYOGENIC PROCESSING TO OBTAIN A SUBSTANTIALLY-THICKENED FORMULATION” (priority 2009, published 2010)

Test: Consistency and homogeneity of the formulation after cryo-processing (observation)
Type: physicochemical
Details: Example 4: 30% in 100% fish oil, 4 cycles, 20 impacts per second
Protocol: Fish oil was cured to a film with the use of heat.
It was processed in a Spex Certiprep cryogrinder for 8 cycles, each cycle lasting 2.0 minutes and with a 2.0 minute between-cycle cool down to maintain the system at cryogenic temperatures.

For “d-alpha-tocopheryl polyethylene glycol succinate [Vitamin E TPGS]”, the “consistency of resulting formulation” value was “highly viscous upon standing and was extremely shear thinning”.
